# Ab-14 heavy chain CDR variants: yeast mating affinities

Antigen: PDVDLGDISGINAS, a 14-residue peptide of the SARS-CoV-2 spike HR2 region.

Parent: Ab-14, a human scFv built as VH, a (GGGGS)3 linker, VL. Only the CDRs of the heavy chain vary.
VH: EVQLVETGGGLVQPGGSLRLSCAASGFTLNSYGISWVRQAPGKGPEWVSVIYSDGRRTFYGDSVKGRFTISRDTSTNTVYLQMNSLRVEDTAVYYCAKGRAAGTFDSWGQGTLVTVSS
VL: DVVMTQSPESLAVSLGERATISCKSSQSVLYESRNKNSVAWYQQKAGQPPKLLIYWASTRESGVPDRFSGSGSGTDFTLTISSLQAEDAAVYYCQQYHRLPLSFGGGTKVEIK

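In library AAYL49, one, two or three CDR residues were substituted; doubles and triples were drawn at random. In AlphaSeq, yeast of one mating type display the scFv and yeast of the other type display the target. Pairs that bind mate more often; barcode pairs of the diploids are counted by sequencing. Scores were corrected for input abundance and mapped to Kd with protein pairs of known affinity run in the same pool. Mating was done three times.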

Positions count from residue 1 of the parent VH; S31C puts C in place of S.
Numbers give log10(Kd / nM), so 0 is 1 nM and 3 is 1 µM. Smaller is tighter.
"ND" means that the variant was in the library but no mating with the target was seen in that replicate; the authors take this as a sign of poor binding, and no number exists.
Empty control strains, which show no peptide, gave a signal in 15% of pairings with library AAYL49; the median was 4.06 and 95% of these signals were weaker than 2.83. No background was subtracted.
Parent in this assay: reference entry 0.65, copy in this library 4.11 (one replicate of three).

changes	replicates, log10 nM
S31C/S35I/Y60N	ND / ND / ND
T28L/V50G/R100A	4.33 / ND / ND
A102R/F105C/D106G	ND / 4.01 / ND
T58K/R100Y	3.64 / 2.71 / 4.46
S35W/G99T/A101R	6.03 / ND / ND
S31C/R56E/G61R	2.07 / 1.75 / 2.20
G33N/I34N/S53L	3.17 / 3.98 / 5.02
G26W/T58R/G61F	ND / ND / ND
G26K/G61K/S107G	0.82 / 1.26 / 1.30
D54I/G99M/S107P	ND / ND / ND
G33E/R100K	ND / ND / ND
G33W/G99C	ND / ND / ND
I34P/G61E/D106K	ND / ND / ND
N30C/Y60V/S107A	ND / ND / 2.98
S35G/V50F	ND / ND / ND
V50G/S53H	ND / ND / ND
G33A/Y52C/F105T	ND / ND / ND
I51N/F59P/G103C	ND / ND / ND
T58E/S63I/F105E	ND / ND / ND
F27K/I51E/T104V	ND / 4.79 / ND
S35V/Y60M/A102F	ND / ND / 4.93
S53G/D62F/T104H	ND / ND / ND
S31F/Y32E/Y60N	ND / ND / ND
S31W/G33F/F105K	ND / ND / 3.69
G55C/Y60F/A101G	ND / ND / ND
S31W/D54L/G55K	ND / ND / ND
L29E/Y52G/R56I	4.24 / 3.15 / ND
I34N/S35R/F105N	ND / ND / ND
S31H/R57E/K65I	ND / ND / ND
I34K/D62S/S107E	ND / ND / ND
S31G/S53E	4.17 / ND / ND
L29H/T58R/R100W	ND / ND / ND
R57N/D106G	2.85 / 2.89 / ND
F27Y/I34Y	0.14 / 0.24 / 0.20
G26V/R56L/T104V	ND / ND / 5.24
Y32I/S35H/A102Q	ND / ND / ND
I34R/V50A/G103E	ND / ND / ND
D54V/R57W/G99Q	ND / ND / ND
F59S/G61E/K65L	2.14 / 1.65 / 2.28
F27E/N30W/G99C	ND / ND / ND
T28Y/S53D/S63Y	ND / ND / ND
T28G/R56Y/Y60P	ND / ND / ND
I34F/S35L/K65S	ND / 2.85 / ND
F27N/N30H/S107F	ND / ND / ND
S35D/A102G/T104E	ND / 3.73 / ND
R57A/F59N/S63R	ND / ND / ND
G33N/F105K	6.13 / ND / ND
V50H/S53V/A101N	ND / ND / ND

The 5 strongest on average among those seen in every replicate, once more:

{"changes": "F27Y/I34Y", "replicates, log10 nM": "0.14 / 0.24 / 0.20"}
{"changes": "G26K/G61K/S107G", "replicates, log10 nM": "0.82 / 1.26 / 1.30"}
{"changes": "S31C/R56E/G61R", "replicates, log10 nM": "2.07 / 1.75 / 2.20"}
{"changes": "F59S/G61E/K65L", "replicates, log10 nM": "2.14 / 1.65 / 2.28"}
{"changes": "T58K/R100Y", "replicates, log10 nM": "3.64 / 2.71 / 4.46"}

Values reported by Engelhart et al. 2022, doi:10.1038/s41597-022-01779-4 (FLAb copy).